Values of other authors as cited in patent US20240158516A1, “METHODS FOR THE TREATMENT OF THYROID EYE DISEASE” (Horizon Therapeutics Ireland DAC, priority 2021, published 2024).

Details: in vivo, iv; cited from earlier work

Ganitumab
T1/2: IV; 6-9 days
